Amino acid sequences for entries named in this document (tags omitted).
UniProt P31645, whole entry: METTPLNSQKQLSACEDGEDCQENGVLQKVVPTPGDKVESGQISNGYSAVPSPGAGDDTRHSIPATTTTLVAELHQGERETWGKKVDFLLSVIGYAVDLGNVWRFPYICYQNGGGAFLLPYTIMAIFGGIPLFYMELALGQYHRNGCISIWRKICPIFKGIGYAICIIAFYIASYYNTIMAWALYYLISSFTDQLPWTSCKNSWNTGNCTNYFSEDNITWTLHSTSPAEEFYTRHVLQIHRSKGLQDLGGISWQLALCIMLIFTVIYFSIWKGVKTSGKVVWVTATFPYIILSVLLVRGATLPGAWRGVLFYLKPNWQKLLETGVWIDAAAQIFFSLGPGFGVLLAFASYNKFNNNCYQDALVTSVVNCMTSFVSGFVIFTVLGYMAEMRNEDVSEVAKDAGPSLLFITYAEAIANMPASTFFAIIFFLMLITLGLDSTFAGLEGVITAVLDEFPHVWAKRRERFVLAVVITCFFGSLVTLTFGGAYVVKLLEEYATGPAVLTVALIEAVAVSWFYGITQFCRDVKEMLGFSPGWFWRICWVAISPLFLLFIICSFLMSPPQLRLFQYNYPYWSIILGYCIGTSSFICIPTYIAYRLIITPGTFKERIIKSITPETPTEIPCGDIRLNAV

Each compound was assayed against T1, human serotonin transporter (hSERT) (Homo sapiens, UniProt P31645) (assay: cell-based). Details: not given.
Work on `COc1ccc(C2=NNC(=O)C3CC=CCC23)cc1OC` (racemic) [Compound 19, 4-(3,4-Dimethoxy-phenyl)-4a,5,8,8a-tetrahydro-2H-phthalazin-1-one, reference compound] yielded an IC50 greater than 100000 nM.
`COc1ccc(C2=NNC(=O)[C@@H]3CC=CC[C@H]23)cc1OC` (racemic) [Compound 19, 4-(3,4-Dimethoxy-phenyl)-4a,5,8,8a-tetrahydro-2H-phthalazin-1-one, reference compound] showed an IC50 greater than 100000 nM.
`COc1ccc(F)cc1C[C@@H]1CC[C@H](CN)O1` (relative stereo) [Compound 18f, Cis-2-aminomethyl-5-(2′-methoxy-5′-fluorophenylmethyl)tetrahydrofuran] showed an IC50 of 111 nM.
For `COc1ccc(F)cc1C[C@H]1CC[C@H](CN)O1` (stereo in doubt) [Compound 18e, Trans-2-aminomethyl-5-(2′-methoxy-5′-fluorophenylmethyl)tetrahydrofuran], the IC50 was 122 nM.

Same assay, conditions: Reuptake (IC50, nM) hSERT
With `COc1ccc(F)cc1CC[C@H]1CC[C@H](CN)O1` (relative stereo) [Compound 18i, Trans-2-(aminomethyl)-5-(2′-methoxy-5′-fluorophenethyl)tetrahydrofuran] the IC50 was 2.5 nM.
For `COc1ccc(F)cc1CC[C@@H]1CC[C@H](CN)O1` (relative stereo) [Compound 18j, Cis-2-(aminomethyl)-5-(2′-methoxy-5′-fluorophenethyl)tetrahydrofuran], the IC50 was 11.7 nM.

Same assay, conditions: Reuptake (Kr, nM) hSERT, Table 1
Work on `COc1ccc(CCC2CCC(CN)O2)c2ccccc12` (centres unmarked) [2-(aminomethyl)-5-(4′-methoxy-1′-naphthylethyl) tetrahydrofuran] yielded a Ki of 53 nM.
For `CC(C)(C)c1ccc(C2CCC(CN)O2)cc1` (centres unmarked) [2-(aminomethyl)-5-(4′-t-butylphenyl) tetrahydrofuran], the Ki was 637 nM.

Same assay, conditions: Reuptake (kup, nM) hSERT, Table 2
`COc1ccc(F)cc1[C@@H]1CC[C@@H](CCNCC[C@@H]2CC[C@@H](c3cc(F)ccc3OC)O2)O1` (relative stereo) [N,N-bis (trans-5′-(2″- methoxy-5″-fluoro-phenyl-2′-tetra-hydrofuryl)ethyl) Amine] showed a Ki of 375 nM.

The compounds below were run against T1, human serotonin transporter (hSERT) (assay: Inhibition of [125I]RTI-55 binding in HEK-hSERT cell membranes). Details: Binding (Ki) hSERT, Table 3; uM.
With `COc1ccc(C2=NNC(=O)C3CC=CCC23)cc1OC` (racemic) [Compound 19, 4-(3,4-Dimethoxy-phenyl)-4a,5,8,8a-tetrahydro-2H-phthalazin-1-one, reference compound] the Ki was greater than 100 µM.

Same assay, conditions: Binding (Ki, nM) hSERT
`COc1ccc(F)cc1CC[C@H]1CC[C@H](CN)O1` (relative stereo) [Compound 18i, Trans-2-(aminomethyl)-5-(2′-methoxy-5′-fluorophenethyl)tetrahydrofuran] gave a Ki of 0.0032 µM.
Work on `COc1ccc(F)cc1CC[C@@H]1CC[C@H](CN)O1` (relative stereo) [Compound 18j, Cis-2-(aminomethyl)-5-(2′-methoxy-5′-fluorophenethyl)tetrahydrofuran] yielded a Ki of 0.0219 µM.
In the case of `COc1ccc(F)cc1CCC[C@H]1CC[C@@H](CN)O1` (relative stereo) [Compound 18n], the Ki is reported as 0.0028 µM.
`COc1ccc(F)cc1CCC[C@@H]1CC[C@@H](CN)O1` (stereo in doubt) [trans-2-amino-methyl-5-((2″-methoxy-5″- fluorophenyl)-3′-propyl)tetra-hydrofuran] was tested, and the Ki was 0.0008 µM.
`NCC1CCC(CCc2cccc3ccccc23)O1` (centres unmarked) [2-(aminomethyl)-5-(1′-naphethyl) tetrahydrofuran] was tested, and the Ki was 0.0185 µM.
With `COc1ccc(F)cc1CCCCC1CCC(CN)O1` (stereo not drawn) [Compound 18q, Trans-2-Aminomethyl-5-(5″-fluoro-2″-methoxyphenyl-4′-butyptetrahydrofuran] the Ki was 0.004 µM.

Same assay, conditions: Binding (Ki, nM) hSERT, Table 1
Work on `COc1ccc(F)cc1[C@@H]1CC[C@H](CCNCCc2ccccc2)O1` (relative stereo) [Cis-2-Phenethyl-aminoethyl)-5-(2′-methoxy-5′-fluorophenyl) tetrahydrofuran] yielded a Ki of 17.5 µM.
`NC[C@@H]1CC[C@@H](c2ccccn2)O1` (relative stereo) [trans-2-(aminomethyl)-5-(2′-pyridyl) tetrahydrofuran.] was tested, and the Ki was 78.2 µM.
Work on `NC[C@@H]1CC[C@@H](c2cnc3ccccc3c2)O1` (relative stereo) [trans-2-(aminomethyl)-5-(3′-quinoline) tetrahydrofuran] yielded a Ki of 5.86 µM.
`NCC1CCC(c2cnc3ccccc3c2)O1` (centres unmarked) [2-(amino-methyl)-5-(3′-quinoline) tetrahydrofuran] was tested, and the Ki was 11.4 µM.
With `NCC1CCC(CCc2ccc(F)cc2)O1` (centres unmarked) [2-(amino-methyl)-5-(4′-fluorophenethyl) tetrahydrofuran] the Ki was 9.19 µM.
With `NCCC1CCC(c2ccco2)O1` (centres unmarked) [2-(aminoethyl)-5-(2′-furyl)tetra-hydrofuran] the Ki was 12.1 µM.
`Cc1ccc(CCC2CCC(CCN)O2)cc1F` (centres unmarked) [2-(aminoethyl)-5-(3′-fluoro-4′-methylphenethyl) tetrahydrafuran] was tested, and the Ki was 1.49 µM.
Work on `NCCC1CCC(c2ccc(Br)cc2)O1` (centres unmarked) [2-(aminoethyl)-5-(4′-bromophenyl) tetrahydrofuran] yielded a Ki of 0.944 µM.
`NCCC1CCC(c2ccc(F)cc2)O1` (centres unmarked) [2-(aminoethyl)-5-(4′-fluorophenyl) tetrahydrofuran] was tested, and the Ki was greater than 10 µM.
In the case of `NCCC1CCC(CCc2ccncc2)O1` (centres unmarked) [2-(aminoethyl)-5-(4′-pyridylethyl) tetrahydrofuran,], the Ki is reported as 15.4 µM.
`CC(C)(C)c1ccc(C2CCC(CCN)O2)cc1` (centres unmarked) [2-(aminoethyl)-5-(4′-t-butylphenyl) tetrahydrofuran] gave a Ki greater than 10 µM.
`NCCC1CCC(C2CCCCC2)O1` (centres unmarked) [2-(aminoethyl)-5-cyclohexyl tetrahydrofuran,] gave a Ki greater than 10 µM.
`NCC1CCC(CCc2cc(C(F)(F)F)ccc2Cl)O1` (centres unmarked) [2-(aminomethyl)-5-(2′-chloro-5′-trifluoromethyl) phenethyl)tetra-hydrouran] showed a Ki of 0.092 µM.
For `COc1ccc2ccccc2c1CCC1CCC(CN)O1` (centres unmarked) [2-(aminomethyl)-5-(2′-methoxy-1′-napheyhyl) tetrahydrofuran], the Ki was 0.228 µM.
`COc1ccc(CCC2CCC(CN)O2)cc1OC` (centres unmarked) [2-(aminomethyl)-5-(3′,4′di-methoxy-phenethyl) tetrahydrofuran] showed a Ki of 4.52 µM.
Work on `NCC1CCC(CCCc2ccccc2)O1` (centres unmarked) [2-(aminomethyl)-5-(3′-phenyl-propyl) tetrahydrofuran] yielded a Ki of 0.381 µM.
`NCC1CCC(CCc2ccncc2)O1` (centres unmarked) [2-(aminomethyl)-5-(4′-pyridylethyl) tetrahydrofuran] showed a Ki of 18.6 µM.
`NCC1CCC(Cc2ccccc2)O1` (centres unmarked) [2-(aminomethyl)-5-benzyl tetrahydrofuran] was tested, and the Ki was greater than 10 µM.
Compound `COc1ccc(F)cc1C1CC[C@@H](CCNCCc2ccccc2)O1` (stereo partly drawn) [Cis-2-(Phenethyl-aminoethyl)-5-(2′-methoxy-5′-fluorophenyl) tetrohydrofuran] has a Ki of 13.8 µM.

Same assay, conditions: Binding (Ki, nM) hSERT, Table 6
Work on `CN1CCC[C@H]1C=Cc1ccccc1` (stereo in doubt) [1-Methyl-2-Styrenyl Pyrrolidine] yielded a Ki greater than 10 µM.
In the case of `C(=C[C@@H]1CCCN1)c1ccccc1` (stereo in doubt) [2-Styrenyl Pyrrolidine], the Ki is reported as 4.58 µM.

Same assay, conditions: Binding (Ki, nM) hSERT, Table 15; mean ± S.E.M.
With `COc1ccc(C2=NNC(=O)[C@@H]3CC=CC[C@H]23)cc1OC` (racemic) [Compound 19, 4-(3,4-Dimethoxy-phenyl)-4a,5,8,8a-tetrahydro-2H-phthalazin-1-one, reference compound] the Ki was greater than 100 µM.

Same assay, conditions: Binding (ki, nM) hSERT, Table 2
`COc1ccc(F)cc1[C@@H]1CC[C@@H](CCNCC[C@@H]2CC[C@@H](c3cc(F)ccc3OC)O2)O1` (relative stereo) [N,N-bis (trans-5′-(2″- methoxy-5″-fluoro-phenyl-2′-tetra-hydrofuryl)ethyl) Amine] was tested, and the Ki was 0.148 µM.
For `COc1ccc(F)cc1C[C@H]1CC[C@H](CCNCC[C@@H]2CC[C@@H](Cc3cc(F)ccc3OC)O2)O1` [N,N-Bis (trans-5′-(2″- methoxy-5″-fluoro-benzyl-2′-tetrahydro-furyl)-2-ethyl)amine], the Ki was 0.061 µM.
In the case of `Oc1ccc(CCC2CCC(CCNCCC3CCC(CCc4ccc(O)cc4)O3)O2)cc1` (centres unmarked) [N,N-bis (5′-(p-hydroxy-phenethyl)-2′-tetra-hydrofuryl-ethyl) amine], the Ki is reported as 0.386 µM.
For `CC(C)(C)c1ccc(C2CCC(CCNCCC3CCC(c4ccc(C(C)(C)C)cc4)O3)O2)cc1` (centres unmarked) [N,N-bis (5′-(p-t-butyl-phenyl)-2′-tetra-hydro-furyl-ethyl) amine], the Ki was greater than 10 µM.
Work on `C1CCC(C2CCC(CCNCCC3CCC(C4CCCCC4)O3)O2)CC1` (centres unmarked) [N,N-bis (5′-cyclo-hexyl-2′-tetra-hydro-furyl-ethyl) amine] yielded a Ki of 6.76 µM.
`COc1ccc2ccccc2c1CCC1CCC(CCNCCC2CCC(CCc3c(OC)ccc4ccccc34)O2)O1` (centres unmarked) [N,N-bis(5′-(2″- methoxy-1″-naphth-ethyl)-2′-tetra-hydrofuryl-ethyl) amine] gave a Ki of 2.03 µM.
With `c1cc(CCC2CCC(CCNCCC3CCC(CCc4ccncc4)O3)O2)ccn1` (centres unmarked) [N,N-bis(5′-(4″- pyridyl-ethyl)-2′-tetrahydro-furyl-ethyl) amine] the Ki was 6.61 µM.
Compound `COc1ccc(CCC2CCC(CCNCCC3CCC(CCc4ccc(OC)c5ccccc45)O3)O2)c2ccccc12` (centres unmarked) [N,N-bis(5′-(4″-meth-oxy-1″-naphth-ethyl)-2′-tetrahydro-furyl-ethyl) amine] has a Ki of 3.67 µM.
`COc1ccc(F)cc1CCC1CCC(CCNCCC2CCC(CCc3cc(F)ccc3OC)O2)O1` (centres unmarked) [N,N-bis(5′-(5″-fluoro-2″- methoxy-phenethyl)-2′-tetrahydrofurylethyl) Amine] was tested, and the Ki was 0.075 µM.
In the case of `Cc1ccc(CCC2CCC(CCNCCC3CCC(CCc4ccc(C)c(F)c4)O3)O2)cc1F` (centres unmarked) [N,N-bis(5′-(m-fluoro-p-methyl-phenethyl)-2′-tetrahydro-furylethyl) amine], the Ki is reported as 2.58 µM.
For `Brc1ccc(C2CCC(CCNCCC3CCC(c4ccc(Br)cc4)O3)O2)cc1` (centres unmarked) [N,N-bis(5′-(p-bromo-phenyl)-2′-tetra-hydrofuryl-ethyl) Amine], the Ki was 0.128 µM.
For `COc1ccc(F)cc1C[C@H]1CC[C@@H](CCNCC[C@H]2CC[C@@H](Cc3cc(F)ccc3OC)O2)O1` [N,N-bis(cis-5′-(2″- methoxy-5″-fluoro-benzyl-2′-tetrahydro-furyl)-2-ethyl) amine], the Ki was 0.022 µM.

Same assay, conditions: hSERT binding Ki
For `NCC1CCC(CCc2cccc3ccccc23)O1` (centres unmarked) [Compound 15a, 2-(Aminomethyl)-5-(1′-naphthethyl)tetrahydrofuran], the Ki was 0.0185 µM.

Same assay, conditions: hSERT binding Ki, Example 29
For `COc1ccc(C2=NNC(=O)[C@@H]3CC=CC[C@H]23)cc1OC` (racemic) [Compound 19, 4-(3,4-Dimethoxy-phenyl)-4a,5,8,8a-tetrahydro-2H-phthalazin-1-one, reference compound], the Ki was greater than 109 µM.

Same assay, conditions: read-out: Binding (Ki, nM) hSERT
Work on `NCCC1CCC(Cc2ccccc2)O1` (centres unmarked) [2-(aminoethyl-5-benzyltetra-hydrofuran] yielded a Ki of 3.82 µM.
`NCC1CCC(c2ccccc2)O1` (centres unmarked) [2-(aminomethyl)-5-phenyltetra-hydrofuran] showed a Ki of 0.043 µM.

Same assay, conditions: read-out: Binding (Ki, nM) hSERT; Table 1
`COc1ccc2ccccc2c1CCC1CCC(CCN)O1` (centres unmarked) [2-(aminoethyl)-5-(2′-methoxy-1′-naphethyl) tetrahydrofuran,] was tested, and the Ki was 0.086 µM.
Work on `COc1ccc(C2CCC(CN)O2)cc1` (centres unmarked) [2-(aminomethyl)-5-(4′-methoxy-phenyl)tetra-hydrofuran] yielded a Ki of 6.88 µM.
`NCC1CCC(CCc2ccccc2)O1` (centres unmarked) [2-(aminomethyl)-5-(phenethyl) tetrahydrofuran] gave a Ki of 0.068 µM.

Same assay, conditions: read-out: hSERT binding Ki; text of Example 28
With `COc1ccc2ccccc2c1CCC1CCC(CCN)O1` (centres unmarked) [Compound 17a, 2-Aminoethyl-5-(2′-methoxy1-1′-naphthethyl)tetrahydrofuran] the Ki was 0.0856 µM.
`COc1ccc(CCC2CCC(CCN)O2)c2ccccc12` (centres unmarked) [Compound 17b, 2-Aminoethyl-5-(4′-methoxy1-1′-naphthethyl)tetrahydrofuran] gave a Ki of 0.0923 µM.

Source: patent publication US20130123253A1, “MODULATORS OF CENTRAL NERVOUS SYSTEM NEUROTRANSMITTERS” (HUMAN BIOMOLECULAR RESEARCH INSTITUTE, priority 2004, published 2013)
